Data: US20250057819A1, “DRUG COMBINATIONS FOR INHIBITING CORONAVIRUS REPLICATION” (priority 2021, published 2025)

Assay: Cell viability assay (MTT) in HRT-18 cells
Details: human, CC50 (μM)
[1] = drug 2 alone (fast synergy screening table)
[2] = drug alone, HRT-18 cells, 48 h treatment, MTT

Structure (SMILES)	CC50 at 48 h [1] [µM]	CC50 at 48 h [2] [µM]
Oc1c(Cl)cc(Cl)c(Cl)c1Cc1c(O)c(Cl)cc(Cl)c1Cl [Hexachlorophene]	> 10	> 10
C[C@H]1O[C@@H](O[C@H]2[C@@H](O)C[C@H](O[C@H]3[C@@H](O)C[C@H](O[C@H]4CC[C@@]5(C)[C@H](CC[C@@H]6[C@@H]5C[C@@H](O)[C@]5(C)[C@@H](C7=CC(=O)OC7)CC[C@]65O)C4)O[C@@H]3C)O[C@@H]2C)C[C@H](O)[C@@H]1O [Digoxin]	0.075	0.075
